Measurements: patent US6455528B1, “Piperazine compounds and medicinal use thereof” (Mitsubishi Pharma Corporation, priority 1997, dated 2002)

Tests used:
IL-10 production = test: Effect on IL-10 production in mice (in vivo), LPS-induced; details: serum IL-10 90 min after LPS 500 μg/kg i.p.; test compound orally 30 min before LPS; ratio relative to test compound non-administration group
Description: (§1) Since the TNF-α concentration in serum reaches a peak at 90 min after LPS administration, the TNF-α concentration in the serum at this point was measured using FACTOR TEST mTNF-α (manufactured by Genzyme) and the IL-10 concentration at the same point of time was also measured using Murine IL-10 ELISA Kit (manufactured by Endogen). […] The effect of the test compound on the TNF-α production and IL-10 production was calculated by the following formula as the ratio relative to the test compound non-administration group.

TNF-α production = test: Effect on TNF-α production in mice (in vivo), LPS-induced; details: serum TNF-α 90 min after LPS 500 μg/kg i.p.; test compound orally 30 min before LPS; ratio relative to test compound non-administration group
Description: as §1

**Q.** What does the source list for `CC(=O)NCc1ccc(CN2CCN(c3ccc(F)cc3F)CC2)cc1` [Example 20, N-(4-((4-(2,4-Difluorophenyl)piperazin-1-yl)methyl)phenylmethyl)acetamide]?
**A.** IL-10 production (%) (IL-10 production): 770%; TNF-α production (%) (TNF-α production): 17%
